Experimental data: patent EP0037777A1, “Process for preparation of cycloalcoyl propanol amines useful as medicine” (PIERRE FABRE S.A., priority 1980, dated 1981)

Conditions: water

Solubilités : soluble dans l'eau: 1%
Substance: tertiobutylamino-3 (isopropyl-2 méthyl-5 cyclohexyloxy)-1 propanol-2, maléate [Exemple 2]
